Reference: publication PMC3162021, “Molecular Sites for the Positive Allosteric Modulation of Glycine Receptors by Endocannabinoids” (PLoS ONE, 2011)

What was measured:
Assay in all cases: whole-cell voltage clamp, concentration-response
Format in all cases: cell-based
[1] = biological target: T1, α1 GlyR (Rattus norvegicus, UniProt P07727, A80T/G282A/S324A)
T1 construct: gene Glra1; homomeric α1, expressed in HEK 293 cells from pCI or pcDNA3; A52, I240, G254, S296, K385 (mature numbering); K385 fits the form without the 8-residue loop insert
T1 sequence (P07727 29-449 isoform P07727-2 A80T/G282A/S324A): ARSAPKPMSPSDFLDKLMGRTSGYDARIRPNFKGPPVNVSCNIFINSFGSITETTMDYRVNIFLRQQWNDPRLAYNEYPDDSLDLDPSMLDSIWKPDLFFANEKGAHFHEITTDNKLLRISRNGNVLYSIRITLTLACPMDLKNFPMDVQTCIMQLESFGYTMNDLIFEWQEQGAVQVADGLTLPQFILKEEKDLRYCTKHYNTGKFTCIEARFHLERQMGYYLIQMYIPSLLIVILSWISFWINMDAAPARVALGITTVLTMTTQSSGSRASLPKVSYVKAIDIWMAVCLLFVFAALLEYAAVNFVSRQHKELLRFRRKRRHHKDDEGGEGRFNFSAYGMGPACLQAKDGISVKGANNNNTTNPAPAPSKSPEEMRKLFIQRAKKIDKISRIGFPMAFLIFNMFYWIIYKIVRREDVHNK
From the text: (§1) whole-cell voltage clamp, concentration-response on α1 GlyR

[2] = biological target: T2, α1 GlyR (Rattus norvegicus, UniProt P07727, I268V)
T2 construct: gene Glra1; homomeric α1, expressed in HEK 293 cells from pCI or pcDNA3; A52, I240, G254, S296, K385 (mature numbering); K385 fits the form without the 8-residue loop insert
T2 sequence (P07727 29-449 isoform P07727-2 I268V): T1 sequence (P07727 29-449 isoform P07727-2 A80T/G282A/S324A) with T52A, I240V, A254G, A296S
From the text: as §1

[3] = biological target: T3, α1 GlyR (Rattus norvegicus, UniProt P07727, G282A/I268V/S324A)
T3 construct: gene Glra1; homomeric α1, expressed in HEK 293 cells from pCI or pcDNA3; A52, I240, G254, S296, K385 (mature numbering); K385 fits the form without the 8-residue loop insert
T3 sequence (P07727 29-449 isoform P07727-2 I268V/G282A/S324A): T1 sequence (P07727 29-449 isoform P07727-2 A80T/G282A/S324A) with T52A, I240V
From the text: as §1

[4] = biological target: T4, α1 GlyR (Rattus norvegicus, UniProt P07727, S324A)
T4 construct: gene Glra1; homomeric α1, expressed in HEK 293 cells from pCI or pcDNA3; A52, I240, G254, S296, K385 (mature numbering); K385 fits the form without the 8-residue loop insert
T4 sequence (P07727 29-449 isoform P07727-2 S324A): T1 sequence (P07727 29-449 isoform P07727-2 A80T/G282A/S324A) with T52A, A254G
From the text: as §1

[5] = biological target: T5, α1 GlyR (Rattus norvegicus, UniProt P07727, K421A)
T5 construct: gene Glra1; homomeric α1, expressed in HEK 293 cells from pCI or pcDNA3; A52, I240, G254, S296, K385 (mature numbering); K385 fits the form without the 8-residue loop insert
T5 sequence (P07727 29-449 isoform P07727-2 K413A): T1 sequence (P07727 29-449 isoform P07727-2 A80T/G282A/S324A) with T52A, A254G, A296S, K385A
From the text: as §1

[6] = biological target: T6, α1 GlyR (Rattus norvegicus, UniProt P07727, G282A/S324A)
T6 construct: gene Glra1; homomeric α1, expressed in HEK 293 cells from pCI or pcDNA3; A52, I240, G254, S296, K385 (mature numbering); K385 fits the form without the 8-residue loop insert
T6 sequence (P07727 29-449 isoform P07727-2 G282A/S324A): T1 sequence (P07727 29-449 isoform P07727-2 A80T/G282A/S324A) with T52A
From the text: as §1

[7] = biological target: T7, α1 GlyR (Rattus norvegicus, UniProt P07727)
T7 construct: gene Glra1; homomeric α1, expressed in HEK 293 cells from pCI or pcDNA3; A52, I240, G254, S296, K385 (mature numbering); K385 fits the form without the 8-residue loop insert
T7 sequence (P07727 29-449 isoform P07727-2): T1 sequence (P07727 29-449 isoform P07727-2 A80T/G282A/S324A) with T52A, A254G, A296S
From the text: as §1

[8] = biological target: T8, α1 GlyR (Rattus norvegicus, UniProt P07727, G282A)
T8 construct: gene Glra1; homomeric α1, expressed in HEK 293 cells from pCI or pcDNA3; A52, I240, G254, S296, K385 (mature numbering); K385 fits the form without the 8-residue loop insert
T8 sequence (P07727 29-449 isoform P07727-2 G282A): T1 sequence (P07727 29-449 isoform P07727-2 A80T/G282A/S324A) with T52A, A296S
From the text: as §1

[9] = biological target: T9, α1 GlyR (Rattus norvegicus, UniProt P07727, A80T)
T9 construct: gene Glra1; homomeric α1, expressed in HEK 293 cells from pCI or pcDNA3; A52, I240, G254, S296, K385 (mature numbering); K385 fits the form without the 8-residue loop insert
T9 sequence (P07727 29-449 isoform P07727-2 A80T): T1 sequence (P07727 29-449 isoform P07727-2 A80T/G282A/S324A) with A254G, A296S
From the text: as §1

[10] = biological target: T10, α1 GlyR (Rattus norvegicus, UniProt P07727, G282A/I268V)
T10 construct: gene Glra1; homomeric α1, expressed in HEK 293 cells from pCI or pcDNA3; A52, I240, G254, S296, K385 (mature numbering); K385 fits the form without the 8-residue loop insert
T10 sequence (P07727 29-449 isoform P07727-2 I268V/G282A): T1 sequence (P07727 29-449 isoform P07727-2 A80T/G282A/S324A) with T52A, I240V, A296S
From the text: as §1

In the case of NCC(=O)O [glycine], the EC50 [1] is reported as 103 ± 4 µM, the EC50 [2] is reported as 63 ± 1 µM and the EC50 [3] is reported as 37 ± 1 µM. It also gave an EC50 [4] of 84 ± 1 µM, an EC50 [5] of 43 ± 3 µM and an EC50 [6] of 73 ± 3 µM. For the same compound, the EC50 [7] was 68 ± 1 µM, the EC50 [8] was 43 ± 1 µM and the EC50 [9] was 195 ± 4 µM. It also gave an EC50 [10] of 32 ± 2 µM.

Changes are numbered by the printed parent chain.
